Hit rate of the full screen: of about 210,000 compounds, about 880 (0.42%) were called active.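 The calls were made as follows: active = replicate mean at 85% of control or lower with very high polarization wells dropped (limit read from the data); inactive = the rest.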 Many of the other results were omitted from the sample, so actives are more common in it than they were.
The compounds below were run against Guanine nucleotide-binding protein G(i) subunit alpha-3 (Rattus norvegicus) (UniProt P08753) (assay: inhibitors of GIV peptide binding to Galpha-i3, primary screen, biochemical, fluorescence polarization, FITC-GIV GBA peptide, rat Galphai3 (AID 1224905)). Conditions: 90 min, hits give low values, scaled: aluminum fluoride 0%, vehicle 100%.

By UniProt entry, the sequences of proteins in these tests, tags left out.
UniProt P08753, whole entry, looked up: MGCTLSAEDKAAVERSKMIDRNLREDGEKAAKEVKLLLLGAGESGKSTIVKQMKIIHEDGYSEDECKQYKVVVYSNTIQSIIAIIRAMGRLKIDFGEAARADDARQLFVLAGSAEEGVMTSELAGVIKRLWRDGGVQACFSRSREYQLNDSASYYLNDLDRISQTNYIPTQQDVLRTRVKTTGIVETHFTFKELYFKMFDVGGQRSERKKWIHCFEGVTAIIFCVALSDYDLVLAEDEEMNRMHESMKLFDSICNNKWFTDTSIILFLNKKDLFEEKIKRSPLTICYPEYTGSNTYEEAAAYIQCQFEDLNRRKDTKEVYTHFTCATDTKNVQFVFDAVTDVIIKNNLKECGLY

Row | Structure (SMILES) | percent of control (FP)
1 | CN(C)/C=C/c1nc(C(F)(F)F)c(C#N)s1 | 20.7% (active)
2 | O=C(Nc1ccc(-c2nc3ccccc3o2)cc1)C1COc2ccccc2O1 (centres undefined) | 140% (inactive)
3 | Cc1nc2ccc(S(=O)(=O)NCC(=O)Nc3nccs3)cc2s1 | 103% (inactive)
4 | O=C(CSc1ncnc2ccccc12)Nc1nc2ccccc2s1 | 102% (inactive)
5 | CCS(=O)(=O)N1CCC2(CC1)Nc1ccc(Cl)cc1-n1cccc12 | 105% (inactive)
6 | CC(C)c1cc(C2CCCN2Cc2ccc(Br)cc2)no1 (centres undefined) | 102% (inactive)
7 | CC(=O)Oc1ccccc1C(=O)N1CCN(c2ccccc2F)CC1 | 101% (inactive)
8 | CC(=O)Oc1cccc2c1C(=O)C=CC2=O | 77.8% (active)
9 | CC(=O)Oc1ccc(OC(C)=O)c2c1C1C=CC2CC1 | 101% (inactive)
10 | CCc1cc(C2CCCN2C(=O)NCC2CCCO2)on1 (centres undefined) | 106% (inactive)
11 | O=C(NCc1ccccc1Cl)c1ccc2nc(N3CCOCC3)sc2c1 | 104% (inactive)
12 | CCOC(=O)C1(C)/C(=N\Nc2ccc(Br)cc2)C(=O)C(=O)N1c1ccccc1 (centres undefined) | 101% (inactive)
13 | CC(=O)N1CCc2cc(N3CC(C(=O)N4CCC5(CC4)OCCO5)CC3=O)ccc21 (centres undefined) | 107% (inactive)
14 | CCC(NC(=O)C1CC(=O)N(c2ccc3c(c2)CCN3C(C)=O)C1)c1cccs1 (centres undefined) | 102% (inactive)
15 | CCC(=O)N1CCc2cc(N3CC(C(=O)N4CCN(C(C)C)CC4)CC3=O)ccc21 (centres undefined) | 72.7% (active)
16 | CCSCCOC(=O)C1=C(C)NC2=C(C(=O)CC(c3ccccc3)C2)C1c1ccc(OC)cc1OC (centres undefined) | 105% (inactive)
17 | Cc1cc(Nc2cccc(C(F)(F)F)c2)nc2ccc(NC(=O)CSc3ccncc3)cc12 | 102% (inactive)
18 | COc1ccc(N=C2NC(=O)/C(=C\c3ccc(OCC(C)C)cc3)S2)cc1 | 107% (inactive)
19 | Cc1cc2c(cc3n2CC(C)(C(=O)NC2CCCCC2)N(Cc2ccc(F)cc2)C3=O)o1 (centres undefined) | 102% (inactive)
20 | Cc1cc2c3c(ccc(N)c3n1)C(=O)c1ccccc1-2 | -32.2% (active)
21 | CCn1c(C)nc2c1C(=O)c1ccccc1C2=O | 102% (inactive)
22 | Nc1nnc2c(n1)-c1ccccc1C2=O | 100% (inactive)
23 | S=C(Cc1ccc(CC(=S)N2CCOCC2)cc1)N1CCOCC1 | 105% (inactive)
24 | O=C(Nc1ccc(O)c(-c2nc3ccccc3s2)c1)c1cccc(N2C(=O)CCC2=O)c1 | 104% (inactive)

Row | Structure (SMILES) | percent of control (FP)
25 | CC1CCN(C(=O)CSc2nnc3c(n2)[nH]c2ccccc23)C(C)C1 (centres undefined) | 108% (inactive)
26 | O=C1/C(=C/c2ccc(-c3cc(Cl)ccc3Cl)o2)C=C(c2ccccc2)N1c1ccc(F)cc1 | 112% (inactive)
27 | CCOc1ccc(NC(=O)c2cn(C)c3c(c(C)nn3-c3ccc(F)cc3)c2=O)cc1 | 101% (inactive)
28 | O=C(NN=c1c(=O)c2ccccc2c1=O)c1ccncc1 | 76.9% (active)
29 | CC(C)/C=N/NC(=O)c1ccccc1 | 101% (inactive)
30 | CC(=O)Nn1nc2c(n1)C(=NNC(=O)c1ccccc1)c1nn(NC(C)=O)nc1C2=NNC(=O)c1ccccc1 | 99.9% (inactive)
31 | O=C(Nc1c(F)cc(F)cc1Br)c1cc(S(=O)(=O)N2CCN(c3ccccc3)CC2)ccc1F | 106% (inactive)
32 | Cc1ccc(S(=O)(=O)N2CSC[C@@H]2C(=O)NCc2csc(C)n2)cc1 | 105% (inactive)
33 | O=C(NCc1ccccn1)c1cc(-c2ccccc2O)no1 | 97.4% (inactive)
34 | CCn1c(=O)c(=O)n(CC(=O)NCCC2=CCCCC2)c2cccnc21 | 101% (inactive)
35 | N#CC(C#N)=C(C#N)/C=C/n1c2ccccc2c2ccccc21 | 69.8% (active)
36 | Cn1c(=O)c(C#N)c(O)c2ccccc21 | 103% (inactive)
37 | COc1ccc(Cl)cc1C(=O)Nc1cccc(-c2nc3cccnc3s2)c1 | 108% (inactive)
38 | COC(=O)C1C(=O)NC(SCC(=O)Nc2ccccc2C)=C(C#N)C1c1ccc(Cl)cc1Cl (centres undefined) | 104% (inactive)
39 | COc1cccc(C2=N/C(=C\c3ccccc3OC)C(=O)N2c2ccc(C)cc2)c1 | 94% (inactive)
40 | COc1cccc(C2=N/C(=C\c3ccccc3OC)C(=O)N2c2cccc(F)c2)c1 | 62.3% (active)
41 | COc1cc(/C=C2/N=C(c3ccccc3)N(C)C2=O)cc(OC)c1OC | 106% (inactive)
42 | COc1ccc(NC(=O)C2CCCN(c3nc4ncccc4n4cccc34)C2)cc1 (centres undefined) | 128% (inactive)
43 | CC1CCN(C(=O)Cn2nc(Cc3ccncc3)c3ccccc3c2=O)CC1 | 101% (inactive)
44 | O=C1NC(=O)N(c2ccccc2)C(=O)C1=Cc1c2ccccc2cc2ccccc12 | 101% (inactive)
45 | O=C1NC(=S)N(c2ccc(Br)cc2)C(=O)/C1=C/c1ccsc1 | 94.1% (inactive)
46 | Cn1cccc1/C=C1\C(=O)NC(=S)N(c2ccccc2)C1=O | 80.1% (active)
47 | Cc1ccc2c(c1)N(C(=O)CSc1nc3ccccc3o1)C(C)(C)c1ssc(=S)c1-2 | 101% (inactive)
48 | COc1ccc(CNC(=O)c2cnc(N(C)C)nc2C)cc1 | 99% (inactive)

Row | Structure (SMILES) | percent of control (FP)
49 | CCc1nn(CC(=O)NCc2ccc(OC)c(OC)c2)c(=O)c2cc3occc3n12 | 103% (inactive)
50 | O=C(NCCCN1CCOCC1)C1CCN(c2cncnc2N2CCCCC2)CC1 | 113% (inactive)
51 | CSc1ccc(C2C=C(c3cccs3)Nc3ncnn32)cc1 (centres undefined) | -22.3% (active)
52 | CSc1ccc(C2C=C(c3ccc(Cl)s3)Nc3ncnn32)cc1 (centres undefined) | -22.3% (active)
53 | CC1=C(C(N)=O)C(c2ccc(Br)cc2)n2ncnc2N1 (centres undefined) | 111% (inactive)
54 | CC1=C(C(=O)Nc2ccccc2Cl)C(c2cccs2)n2ncnc2N1 (centres undefined) | 98% (inactive)
55 | COc1cccc(C2=CC(c3cccc(OC)c3)n3ncnc3N2)c1 (centres undefined) | 96% (inactive)
56 | Cc1ccc(-n2nc3c(c2NC(=O)c2ccc(S(=O)(=O)N4CCCC4)cc2)CSC3)c(C)c1 | 102% (inactive)
57 | O=C(c1cc2c(s1)-c1ccsc1CC2)N1CCN(c2ccccn2)CC1 | 109% (inactive)
58 | COc1ccc2oc(-c3noc(-c4ccnn4C)n3)c(C)c2c1 | 106% (inactive)
59 | Cc1cc(C)n(CC(=O)NC2CCCC2)c(=O)c1S(=O)(=O)c1ccc(Cl)cc1 | 104% (inactive)
60 | CCN1CCN(C(=O)c2sc3nc(C)nc(N4CCN(c5ccccn5)CC4)c3c2C)CC1 | 104% (inactive)
61 | COCCNC(=O)c1ccc(Cn2c(SCC(=O)NCc3ccccc3)nc3ccc(Br)cc3c2=O)cc1 | 97.2% (inactive)
62 | N#C/C(=C\c1ccc(-c2ccccc2)o1)C(=O)Nc1ccccc1 | 36.5% (active)
63 | CCOC(=O)c1ccc(-c2ccc(/C=C(\C#N)C(=O)Nc3ccc(OCC)cc3)o2)cc1 | 102% (inactive)
64 | CCOC(=O)c1ccc(-c2ccc(/C=C(\C#N)C(=O)Nc3ccc(C)cc3)o2)cc1 | 99.2% (inactive)
65 | CCNC(=O)N1CCCC(c2nc(C(C)C)cs2)C1 (centres undefined) | 105% (inactive)
66 | O=C(CN1CCN(C(=O)c2cccc(Cl)c2)CC1)Nc1nnc(-c2ccccc2)s1 | 98.2% (inactive)
67 | CCOc1ccc(NC(=O)Cn2c(SCC)nc3ccccc32)cc1 | 98.2% (inactive)
68 | Cc1cc2nc3[nH]c4ccccc4c3nc2cc1C | 109% (inactive)
69 | Cc1cc2nc3c(=O)n(Cc4ccccc4)c(=O)[nH]c3nc2cc1N | 72.2% (active)
70 | O=c1[nH]c2c(c(=O)n1Cc1ccccc1)CCC2 | 110% (inactive)
71 | Cc1sc(NC(=O)c2ccccc2)c(C(Nc2ccccn2)c2cccnc2)c1C (centres undefined) | 102% (inactive)
72 | Fc1ccccc1CSc1nccn2nc(-c3ccc(Br)cc3)cc12 | 111% (inactive)

Row | Structure (SMILES) | percent of control (FP)
73 | Cc1ccc(C2(c3ccc(C)cc3)CC2C(=O)Nc2cccc(C(F)(F)F)c2)cc1 (centres undefined) | 104% (inactive)
74 | Cc1ccc(OCCn2cc(/C=C3/C(=O)Nc4cc(Cl)ccc43)c3ccccc32)cc1C | 35.2% (active)
75 | COc1ccccc1OCCCn1cc(/C=C2/C(=N)N3C=CSC3=NC2=O)c2ccccc21 | 103% (inactive)
76 | Cc1ccc(OCCn2cc(C(=O)c3ccccc3)c3ccccc32)cc1 | 99.6% (inactive)
77 | CCc1cc2c(NC3CCCCC3)ncnc2s1 | 117% (inactive)
78 | O=c1sc2ccccc2c2nc[nH]c12 | 99.7% (inactive)
79 | O=C(Cn1c2c(c(-c3ccccc3Cl)cc1=O)CCC2)NC1CCCCC1 | 108% (inactive)
80 | CNC(=O)CSc1nnc2[nH]c(=O)cc(C)n12 | 108% (inactive)
81 | N#Cc1c(N2CCCCCC2)ncc2cc3ccccc3nc12 | -18.1% (active)
82 | Cc1c(Cc2ccccc2)c(N2CCCCC2)n2c(nc3ccccc32)c1C#N | 146% (inactive)
83 | Cc1cc(N2CCN(c3ccccc3)CC2)n2c(nc3ccccc32)c1C#N | 99.6% (inactive)
84 | Cc1cc(C(=O)NCCN2CCOCC2)c2c(=O)n(C)c(=O)n(C)c2n1 | 105% (inactive)
85 | CC(=O)N[C@H]1[C@H](Oc2ccc(C)cc2)O[C@H](COC(C)=O)[C@@H](OC(C)=O)[C@@H]1OC(C)=O | 131% (inactive)
86 | CCOC(=O)CSc1ncn[nH]1 | 102% (inactive)
87 | CCn1nc(C)cc1-c1nnc(SCC(=O)c2ccc(C)cc2)o1 | 108% (inactive)
88 | CCN(CC)c1ccc2cc(C(=O)O)c(=O)oc2c1 | 115% (inactive)
89 | CCN(CC)c1ccc2cc(-c3csc(-c4nc(-c5cc6ccc(N(CC)CC)cc6oc5=O)cs4)n3)c(=O)oc2c1 | 109% (inactive)
90 | CCN(CC)c1ccc2oc(=O)c(C)nc2c1 | -40.7% (active)
91 | Cc1c(C(=O)NCC(c2ccccc2)c2c[nH]c3ccccc23)oc2ccc(Cl)cc12 (centres undefined) | 105% (inactive)
92 | O=C1NC(=O)/C(=C/c2ccc(-c3ccc([N+](=O)[O-])cc3Br)o2)S1 | 62.8% (active)
93 | N=C1S/C(=C\c2ccc(-c3ccccc3[N+](=O)[O-])o2)C(=O)N1c1ccc2c(c1)OCO2 | 114% (inactive)
94 | O=C1N/C(=C/c2ccc(-c3ccc([N+](=O)[O-])cc3Br)o2)C(=O)N1Cc1ccc(Cl)cc1 | 146% (inactive)
